According to PubChem BioAssay AID602449 (Sanford-Burnham Center for Chemical Genomics, 2012):
Only a part is listed here, and it is no random draw. Calls of active or inactive are those of the source.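 Rule for the calls: active = inhibition of 50% or more, scaled per plate between neutral and stimulator controls; inactive = the rest.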

Assay: mitochondrial permeability transition pore inhibitors, primary screen, biochemical, isolated mouse mitochondria, absorbance (AID 602449);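 note: 0% = DMSO wells given calcium and 100% = 1 mM EGTA wells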
Conditions: Ca2+ swelling absorbance, 30 min, at 10 µM, active compounds read high

| Compound | inhibition |
| --- | --- |
| O=[N+]([O-])c1ccc(NC(=S)NCc2ccc(F)cc2)cc1 | active: 95.2% |
| Fc1ccc(CNC(=S)Nc2cccc(Cl)c2)cc1 | active: 96.1% |
